Reference: PubChem BioAssay AID493091 (Sanford-Burnham Center for Chemical Genomics, 2011)
This is a selection; strong and weak results do not stand in their true shares. Some results for these compounds are left out of this collection, so the calls shown say nothing about other tests. The source made the active and inactive calls.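 Rule for the calls: active = inhibition above about 50% at 20 µM (limit read from the data); inactive = the rest.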

The chains behind the UniProt entries cited, without tags or fusion partners. Residues count along the entry.
UniProt Q9GZU7, 76-261 limits assumed: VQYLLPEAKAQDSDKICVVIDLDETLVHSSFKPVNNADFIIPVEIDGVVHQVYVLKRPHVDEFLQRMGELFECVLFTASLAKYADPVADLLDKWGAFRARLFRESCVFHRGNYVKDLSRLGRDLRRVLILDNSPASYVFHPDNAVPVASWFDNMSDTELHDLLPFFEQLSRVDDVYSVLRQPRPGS

Target: Carboxy-terminal domain RNA polymerase II polypeptide A small phosphatase 1 (Homo sapiens) (UniProt Q9GZU7)
Assay: Scp-1 phosphatase inhibitors, primary screen, biochemical, colorimetric, uHTS (AID 493091);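 note: plate controls were DMSO wells with enzyme for no effect and wells lacking enzyme for full effect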
Settings: Recombinant Scp1, phosphopeptide, malachite green phosphate absorbance; at 20 µM; stronger effect = higher value
How it was run: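 Times: enzyme reaction 45 min at room temperature, colour 5 min, stabilisation 30 min. Material: SCP-1 catalytic fragment, aa 76-261. Medium: Acidic Tris acetate buffer with magnesium and detergent. Signal: colorimetric free-phosphate detection, absorbance 630 nm. Read-out basis: % inhibition of SCP-1 phosphate liberation. Reagent: Phosphorylated 17-residue peptide substrate.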

Compound	inhibition
CN(C)C1(CNC(=O)c2ccc(Br)cc2)CCCCC1	inactive: -4.55%
COc1cc(C(=O)NCC2(N(C)C)CCCCC2)c([N+](=O)[O-])cc1OC	inactive: -7.31%
COc1cccc(C(=O)NCC2(N3CCCCC3)CCCCC2)c1	inactive: -1%
COc1ccc(Cl)cc1C(=O)NCC1(N(C)C)CCCCC1	inactive: -15.4%
O=C(NCC1(N2CCCCC2)CCCCC1)c1cccc(Cl)c1	inactive: 5.88%
O=C(OC1CN2CCC1CC2)C(CO)(c1ccccc1)c1ccccc1 (stereo not given)	inactive: 2.86%
COc1ccc(Br)c(C(=O)NCC2(N3CCCCC3)CCCCC2)c1	inactive: 2.48%
CC(C)Oc1ccc(C(=O)NCC2(N(C)C)CCCCC2)cc1	inactive: -9.09%
O=C(OCCN1CCCC1)C(O)(c1ccccc1)c1ccccc1	inactive: 2.63%
CN(C)c1cccc(C(=O)NCC2(N(C)C)CCCCC2)c1	inactive: -10.4%
O=C(NCC1(N2CCCCC2)CCCCC1)c1cc([N+](=O)[O-])ccc1Cl	inactive: -5.15%
CN1[C@@H]2CC[C@H]1CC(OC(=O)C(O)(c1ccccc1)c1ccccc1)C2 (stereo not given in full)	inactive: 2.22%
CCN(CC)CC(C)C(C)OC(=O)C(O)(c1ccccc1)c1ccccc1 (stereo not given)	inactive: -5.75%
COc1cc(SC)ccc1C(=O)NCC1(N(C)C)CCCCC1	inactive: 2.67%
CC(C)N1C(=O)CC2(CCN(CCOC(=O)C(O)(c3ccccc3)c3ccccc3)CC2)C1=O	inactive: 0.47%
Cc1ccc(C(=O)NCC2(N3CCCCC3)CCCCC2)cc1	inactive: 6.19%
Cc1ccccc1C(=O)NCC1(N2CCCCC2)CCCCC1	inactive: -12.9%
CN(C)c1ccc(C(=O)NCC2(N(C)C)CCCCC2)cc1	inactive: 0.4%
CN(C)C1CCCC1OC(=O)C(O)(c1ccccc1)c1ccccc1 (stereo not given)	inactive: -4.84%
C=CCN1CCN(CCOC(=O)C(O)(c2ccccc2)c2ccccc2)CC1	inactive: -8.1%
O=C(NCC1(N2CCCCC2)CCCCC1)c1cc(F)c(F)cc1Cl	inactive: -7.24%
COc1ccc(C(=O)NCC2(N(C)C)CCCCC2)cc1	inactive: -0.87%
CCN1CCCC(OC(=O)C2(O)c3ccccc3C=Cc3ccccc32)C1 (stereo not given)	inactive: -5.69%
Cc1cc(C(=O)NCC2(N3CCCCC3)CCCCC2)ccc1[N+](=O)[O-]	inactive: -10.1%
O=C(NCC1(N2CCCCC2)CCCCC1)c1cccc(Br)c1	inactive: -5.33%
